Reference: patent publication US20240216311A1, “FULLY-DILUTABLE, SELF-MICROEMULSIFYING DELIVERY SYSTEMS (SMEDDS) FOR POORLY WATER-SOLUBLE POLAR SOLUTES” (THE GOVERNING COUNCIL OF THE UNIVERSITY OF TORONTO, priority 2020, published 2024)

Columns and labels:
[1] = adapted from [21]; cited from earlier work
[2] = from Drugbank; nonylphenol from ChemSpider; cited from earlier work
[3] = Characteristic curvature (Cc) by salinity phase scans with reference surfactant C9E5; assay type: physicochemical; conditions: polar oil in mixtures with C9E5; heptane (cyclohexane for CBD) as oil
Method: The characteristic curvature (Cc) of the candidate hydrophilic linker with extremely negative Cc (Cc<−5) was determined following the mixed reference and test surfactant method used by Zarate et al.. […] The salinity phase scans were conducted by vortex-mixing 2 mL of the aqueous surfactant solution, containing a set value of sodium chloride (g NaCl/100 mL of aqueous surfactant solution or % w/v NaCl) with 2 mL of n-heptane at room temperature in 2-dram vials sealed with a silicone-lined cap. […] The difference between the initial volume added to the vial (2 mL), and the excess phase volume was considered the volume solubilized. The ratio between the volume solubilized (in mL) and the total mass of surfactant mixture (0.2 g) was reported as the solubilization parameter (SP) for the given phase at the set salinity.

Substance | L [1] | Aqueous solubility [2] | dS*/dx [3] | vs/as [1]
Disodium stearoyl capryl glutamate | 34 Å |  |  | 
Nonylphenol |  | 0.0007 wt % | −73 % w/v NaCl | 
Sucrose distearate | 34 Å |  |  | 12.0 Å
Sucrose palmitate | 23 Å |  |  | 17.8 Å
